The values that follow come from the NIST ThermoML archive (doi:10.1021/acs.jced.7b00119).

± gives the expanded uncertainty stated by the source.

For series [1] the following is noted: 353.15 K; Liquid; Closed cell (Static) method.
The nature of series [2]: excess molar enthalpy (molar enthalpy of mixing); xn = mol fraction of the nth substance listed. The note with it: 323.15 K, 1272 kPa, Liquid, Flow calorimetry.

Regarding `CCCCOCCCC` [dibutyl ether], the “vapor or sublimation pressure” value in series [1] was found to be 13.9 ± 0.17 kPa.
In the case of `CCCCOCCCC` [dibutyl ether] + CC(=O)N(C)C, the excess molar enthalpy is 0.0387 ± 0.00167 kcal/mol in series [2] (x1 = 0.0281); 0.0755 ± 0.00263 kcal/mol in series [2] (x1 = 0.0575); 0.112 ± 0.00335 kcal/mol in series [2] (x1 = 0.0883); 0.147 ± 0.00406 kcal/mol in series [2] (x1 = 0.1206); 0.179 ± 0.00478 kcal/mol in series [2] (x1 = 0.1546); 0.209 ± 0.0055 kcal/mol in series [2] (x1 = 0.1904). For the same molecule, the excess molar enthalpy in series [2] (x1 = 0.2281) turned out to be 0.234 ± 0.00598 kcal/mol; in series [2] (x1 = 0.2678), 0.258 ± 0.00645 kcal/mol; in series [2] (x1 = 0.3098) it was 0.277 ± 0.00693 kcal/mol; in series [2] (x1 = 0.3543), 0.295 ± 0.00717 kcal/mol; in series [2] (x1 = 0.4014), 0.308 ± 0.00741 kcal/mol; in series [2] (x1 = 0.4515) it was 0.317 ± 0.00765 kcal/mol. The excess molar enthalpy in series [2] (x1 = 0.5047) was determined as 0.321 ± 0.00789 kcal/mol; in series [2] (x1 = 0.5615), 0.317 ± 0.00765 kcal/mol; in series [2] (x1 = 0.6221), 0.308 ± 0.00741 kcal/mol; in series [2] (x1 = 0.687), 0.287 ± 0.00693 kcal/mol; in series [2] (x1 = 0.7566) it was 0.252 ± 0.00621 kcal/mol; in series [2] (x1 = 0.8316) it was 0.199 ± 0.00526 kcal/mol. The excess molar enthalpy in series [2] (x1 = 0.9125) came to 0.12 ± 0.00359 kcal/mol.
